# Only some compounds are listed: those with a hit (about 3.7% of all), similar ones and a draw of the others.
# Nrf2 block: Nrf2 pathway inhibition; A549 ARE-Fluc reporter, luciferase luminescence, 18-24 h; Potency, µM (doses to about 46 µM), for the others: top-dose activity change, negative = inhibition, hits mostly inhibitors; actives 2.1% (n = 360,000); note: potency is the fitted concentration of half-maximal effect; % is set by controls: 0 for no effect and ±100 for the full control effect; nearly all actives have a fitted effect of over 60% in size
#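 Nrf2 activity is the BugLite luminescence, read 15 min after reagent at room temperature, following CellTiter-Fluor cytotoxicity readout (30 min, 37C). Compound titrations were applied for 18-24 h to 5000 A549 ARE_Fluc cells/well in 5% FBS OPTI-MEM.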
# Nrf2 activator: activates Nrf2 signaling; AREc32 ARE-luciferase reporter (MCF7-derived line), luminescence, 24 h; Potency, µM (doses to about 46.1 µM), for inactives: top-dose activation, hits mostly activators; actives 0.31% (n = 410,000); note: potency is the fitted concentration of half-maximal effect; % of control where 0% means no effect; nearly all actives have a fitted effect of over 65% in size
#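 Reporter line AREc32 (ARE-Fluc), seeded overnight in OPTI-MEM with 5% FBS; compound pin-transferred, 24 hr at 37 deg C, 5% CO2; luminescent read-out.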
# ClpP mod: qHTS Assay for Activators of ClpP; actives 1.9% (n = 340,000); purified B. subtilis ClpP, FRET peptide cleavage, 20 min; AID 651965, 2013; Potency, µM (top dose mostly 57.5 µM), without a hit: at the top dose activity change, negative = active; active = well fitted falling curve with a large enough effect; inconclusive = small, poorly fitted or top-dose-only effect; inactive = no such curve, though single readings can be large or run the other way; note: potency is the fitted concentration of half-maximal effect; the source files actives as falling curves though it sought activators and does not explain the sign; nearly all actives have a fitted effect of over 65% in size
#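 ClpP 10 microg/mL final, pH 8 Tris/KCl buffer with BSA, glycerol, Tween-20; compound pinned in; FRET-FV substrate; RT 20 min; Ex320/Em430; ΔFRET vs ADEP 5.8 microM, DMSO, no enzyme.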
# IL-2 act: activates IL-2 in a cell-based reporter assay; IL-2 activation reporter assay, cell-based qHTS; stimulated with anti-CD3/CD4/CD28 beads; in transgenic mouse T cells; activation, % (series mostly up to about 46 µM); actives 0.065% (n = 360,000); AID 652025; in the data active = activation above about 50%; inconclusive = mostly about 30% to 49%; note: 0% is about no effect
#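 Unstimulated transgenic mouse T cells; 60-min compound exposure; bead-based TCR/CD4/CD28 stimulation; 18 h culture, 37 degrees C; dual fluorescence (EGFP, DsRed) plate cytometry.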
# miR-21 reporter: raises the signal of a miR-21 reporter | Potency, µM (highest dose often 38.3 µM), without a hit: at the top dose reporter change, positive = more light | HeLa miR-21 FLuc reporter, luciferase, 48 h | 340,000 tested, under 10 active; active = well fitted rising curve with a large enough effect; inconclusive = small, poorly fitted or top-dose-only effect; inactive = no such curve, though single readings can be large or run the other way;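 further: % of control where 0% means no effect; miR-21 action dims this reporter so a rising signal means less miR-21 action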
#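 HeLa miR-21-FLuc reporter line, endogenous miR-21; 2000 cells/well in DMEM/10% FBS; compound titration up to ~40uM final, 48 h, 37 degree Celsius; luciferase detection reagent, 15 min lysis, CCD luminescence.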
# A549 tox: counter-screen for Nrf2 inhibitors: cytotoxicity in A549 cells; Potency, µM (titrated, usually from 46 µM), inactives show top-dose activity change, negative = cytotoxicity, actives largely listed as inhibitors; A549 ARE-Fluc cells, CellTiter-Fluor viability, 18-24 h; actives 0.16% (n = 390,000); note: potency is the fitted concentration of half-maximal effect; % is set by controls: 0 for no effect and ±100 for the full control effect
#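 A549 ARE_Fluc cells in 5% FBS OPTI-MEM were exposed to compounds in concentration-response for 18-24 h at 37 deg C. Viability was read by CellTiter-Fluor fluorescence (Ex 405/Em 525) after 30 min, before the luciferase read.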
# ClpP inh valid: inhibits B. subtilis ClpP protease, hit validation; purified B. subtilis ClpP, FRET-FV substrate cleavage, 20 min; shares compounds with ClpP mod; actives 40% (n = 470); Potency, µM (top dose mostly 57.5 µM), for the others: at the highest dose activity change, negative = inhibition, usual class: inhibitors; note: potency is the fitted concentration of half-maximal effect; % is set by controls: 0 for no effect and ±100 for the full control effect; nearly all actives have a fitted effect of over 70% in size
# Active calls of the source: *; ? = inconclusive; . = not tested or not shown; [ ] = dose if it differs, or a comment. Unless noted, calls come from the whole dose curve; as a rule, active = well fitted curve in the direction sought with a large enough effect; inconclusive = small, poorly fitted or top-dose-only effect, or another doubt; inactive = no such curve, though single readings can be large; an effect the other way counts as inactive or inconclusive.
entry	canonical_smiles	Nrf2 block	Nrf2 activator	ClpP mod	IL-2 act
1	CCC(=O)Nc1cc2nn(-c3ccc(OC)cc3)nc2cc1C	?	0.2%	2.82µM*	-0.4
2	COc1ccc(-n2nc3cc(C)c(NC(=S)NC(=O)c4ccccc4C)cc3n2)cc1	.	0.4%	216.5%	2.7
3	O=S(=O)(Nc1ccccc1)c1ccc(-c2csnn2)cc1	-6.7%	2.4%	.	-1.5
4	c1ccc(-c2ccc(-c3csnn3)cc2)cc1	.	26.0%	88.4%	0.2
5	Cc1cc(C)n2nc(-c3sccc3-n3c(C)ccc3C)cc2n1	?	21.2%	35.5%	-0.2
6	COc1ccccc1NC(=O)C1=C(C)Nc2nc(SCc3cc(C)ccc3C)nn2C1c1ccccc1 (stereo unspecified)	.	4.0%	1.1%	.
7	COc1ccc(NC(=O)C2=C(C)Nc3nc(SCc4ccc(C)cc4C)nn3C2c2cccc(OC)c2OC)cc1 (stereo unspecified)	13.0%	5.4%	80.5%	.
8	COc1cccc2c1cc1c(=O)n(CC(=O)NCc3ccco3)nc(C)n12	14.3%	2.8%	3.55µM*	.
9	CCCN1CCN(CCCNC(=O)Cn2nc(C)n3c(cc4c(OC)cccc43)c2=O)CC1	0.5%	0.4%	4.47µM*	.
10	Cc1ccc(-n2ncc3c(N4CCCCCC4)ncnc32)cc1	.	-2.6%	?	.
11	O=C(Nc1ccc(Br)cc1F)c1cc2nc(-c3ccco3)cc(C(F)(F)Cl)n2n1	6.7%	-0.6%	-3.2%	.
12	c1ccc(Oc2cc(-n3cncn3)ncn2)cc1	?	3.7%	2.82µM*	-0.3

entry	miR-21 reporter	A549 tox	ClpP inh valid
1	-49.7%	-1.9%	19.3µM*
2	-49.5%	-0.2%	.
3	7.0%	0.4%	.
4	-39.5%	5.0%	-0.5%
5	-29.3%	-0.9%	?
6	-0.2%	0.2%	.
7	2.2%	-4.1%	-19.1%
8	-1.1%	5.0%	?
9	-2.8%	6.5%	3.85µM*
10	?	3.4%	.
11	0.5%	-3.1%	.
12	-37.4%	9.9%	-0.5%

# Carrying on.
entry	canonical_smiles	Nrf2 block	Nrf2 activator	ClpP mod	IL-2 act
13	Cc1ccc(NC(=O)Cn2c(=O)c3ccccc3n3nncc23)cc1	-1.2%	0.4%	2.7%	.
14	CC(C)CCNc1ncnc2c1nnn2Cc1ccccc1Cl	-13.1%	3.7%	10µM*	-0.3
15	O=C1Cc2cc(S(=O)(=O)N3CCNCC3)ccc2N1	1.7%	0.9%	104.3%	1.3
16	CC(=O)N1N=C(c2ccncc2)OC12CCCC2	14.9%	-0.2%	10µM*	-0.2
17	CC(=O)N1N=C(c2ccc(Br)cc2)OC12CCCC2	-0.5%	-0.5%	0.5%	1.9
18	O=C(NCC(c1ccc(Cl)cc1)N1CCCCC1)c1ccccc1F (stereo unspecified)	8.4%	4.2%	-1.7%	.
19	Cc1nc2oc3c(NCC4CCCO4)ncnc3c2c2c1COC(C)(C)C2 (stereo unspecified)	-11.4%	0.1%	-2.7%	-0.4
20	CC(C)c1nc2oc3c(NCC4CCCO4)ncnc3c2c2c1COC(C)(C)C2 (stereo unspecified)	-6.0%	-0.1%	7.08µM*	-0.2
21	Cc1c(C(=O)NCc2cccc(Br)c2)oc2ccc3c(c12)C(=O)CC(C)(C)O3	?	6.7%	-11.2%	.
22	CCN(c1ccccc1)S(=O)(=O)c1ccc(OC)c(NC(=O)c2cc(F)c(F)c(F)c2F)c1	6.3%	-0.1%	41.0%	0.8
23	COc1cccc(-c2nc(-c3ccc(NC(=O)c4cccs4)cc3)no2)c1	-0.5%	4.2%	41.0%	2.2
24	COc1ccccc1/C=C/c1nc2ccccc2s1	.	.	-11.4%	.

entry	miR-21 reporter	A549 tox	ClpP inh valid
13	3.7%	6.2%	.
14	-0.1%	-0.3%	-2.4%
15	.	-1.0%	5.9%
16	-2.4%	1.5%	24.3µM*
17	-0.8%	0.6%	.
18	-2.3%	0.2%	.
19	-2.3%	-15.0%	.
20	-8.6%	3.4%	21.7µM*
21	-3.0%	-8.0%	.
22	.	-1.3%	?
23	-43.5%	-6.6%	?
24	.	.	.

# Four entries from above, with two lines to a compound.
# Every second line gives: Nrf2 block | Nrf2 activator | ClpP mod | IL-2 act | miR-21 reporter | A549 tox | ClpP inh valid
20) CC(C)c1nc2oc3c(NCC4CCCO4)ncnc3c2c2c1COC(C)(C)C2 (stereo unspecified)
→ -6.0% | -0.1% | 7.08µM* | -0.2 | -8.6% | 3.4% | 21.7µM*
21) Cc1c(C(=O)NCc2cccc(Br)c2)oc2ccc3c(c12)C(=O)CC(C)(C)O3
→ ? | 6.7% | -11.2% | . | -3.0% | -8.0% | .
22) CCN(c1ccccc1)S(=O)(=O)c1ccc(OC)c(NC(=O)c2cc(F)c(F)c(F)c2F)c1
→ 6.3% | -0.1% | 41.0% | 0.8 | . | -1.3% | ?
23) COc1cccc(-c2nc(-c3ccc(NC(=O)c4cccs4)cc3)no2)c1
→ -0.5% | 4.2% | 41.0% | 2.2 | -43.5% | -6.6% | ?

# Going on with the list:
entry	canonical_smiles	Nrf2 block	Nrf2 activator	ClpP mod	IL-2 act
25	NC(=O)c1ccccc1NS(=O)(=O)Cc1ccccc1	-8.9%	-0.5%	7.94µM*	0.1
26	CCOC(=O)c1[nH]c2ccccc2c1NC(=O)c1cc(OCC)c(OCC)c(OCC)c1	1.7%[9.27 µM]	0.4%	44.9%	.
27	COc1ccc(C#Cc2c(-c3ccsc3)oc3ccc(-c4cc(OC)c(OC)c(OC)c4)cc23)cc1	-3.2%	0.4%	45.5%	-0.2
28	COc1ccc(-c2oc3ccc(-c4cc(OC)c(OC)c(OC)c4)cc3c2-c2ccc(OC)cc2)cc1	-4.9%	0.5%	4.3%	0.2
29	CCOc1ccc(-n2c(=O)c3c(C)c(C)sc3n(Cc3c(F)cccc3Cl)c2=O)cc1	4.6%	-0.8%	0.3%	.
30	Cc1ccccc1C(=O)NCC(c1cccnc1)N1CCc2ccccc21 (stereo unspecified)	-8.9%	-0.3%	1.1%	.
31	Fc1cccc2sc(Nc3nc4ccccc4s3)nc12	?	?	-5.5%	0.1
32	Fc1ccc2nc(Nc3nc4c(F)cc(F)cc4s3)sc2c1	?	?	8.91µM*	0.2
33	Fc1ccc2nc(Nc3nc4cc5c(cc4s3)OCO5)sc2c1	?	?	?	-1.4
34	Fc1ccc2nc(Nc3nc4cc5c(cc4s3)OCCO5)sc2c1	?	10.3%[9.22 µM]	6.31µM*	1.5
35	Fc1ccc2nc(Nc3nc4c(F)cccc4s3)sc2c1	5.1%	?	8.91µM*	-0.1
36	CCOc1ccc(NC(=O)Cn2c(=O)n(-c3cccc(Cl)c3)c(=O)c3c2c2cc(C)ccc2n3C)cc1	12.6%[9.27 µM]	1.8%	-27.5%	.

entry	miR-21 reporter	A549 tox	ClpP inh valid
25	-2.6%	-5.5%	21.7µM*
26	-3.1%	0.1%	12.3%
27	.	-0.6%	?
28	.	1.3%	.
29	0.1%	0.2%	.
30	10.6%	-0.2%	.
31	-58.2%	11.8%	.
32	-9.7%	-19.6%	?
33	-67.2%	11.7%	.
34	-47.8%	14.3%	3.85µM*
35	-23.9%	11.1%	4.85µM*
36	-0.5%	1.1%	.

# Following part
entry	canonical_smiles	Nrf2 block	Nrf2 activator	ClpP mod	IL-2 act
37	CC1Cc2cc(S(=O)(=O)CCC(=O)Nc3cccc(F)c3)ccc2N1C(=O)C1CC1 (stereo unspecified)	3.3%	0.4%	-3.5%	.
38	N#Cc1ccccc1S(=O)(=O)N1CCN(C(=O)CN2CCCSc3ccccc32)CC1	0.3%	0.0%	0.2%	0.1
39	Cc1ccc(S(=O)(=O)N2CCN(C(=O)CN3CCCSc4ccccc43)CC2)cc1	-8.1%	-0.5%	39.9%	1.2
40	CCc1ccc(NC(=O)c2ccc(CN3C(=O)C(C)=C(c4ccc(C)cc4)S3(=O)=O)cc2)cc1	?	-0.7%	-3.0%	.
41	COc1ccc(-c2nc3cccc(C)n3c2Nc2ccc(C)cc2)cc1	-6.4%	.	4.5%	.

entry	miR-21 reporter	A549 tox	ClpP inh valid
37	8.6%	3.0%	.
38	.	-0.7%	.
39	.	0.2%	-2.6%
40	-4.3%	?	.
41	.	-4.4%	.

# Screening results as filed in PubChem.
